This experiment has as its target truncated human beta-secretase, BACE1 (amino acids 1-454) (Homo sapiens (Human), UniProt P56817). Kind of experiment: BACE1 Assay (Assay 1), fluorescence quench assay. Format: biochemical. To be noted: pH 4.4. The method, then: The substrate was dissolved at 1 mg/ml in DMSO.
The assay was performed in the presence of OptiMEM™ (supernatant collected over 24 h and cleared from cellular debris by centrifugation) containing the ectodomain of BACE1, 25 μl water containing the desired 2-fold concentration of test compound and 2% DMSO, 1 μM substrate peptide, 20 mM NaOAc, pH 4.4, and 0.04% Triton-X100 in a total assay volume of 50 μl in a 384 well plate. In general, 25 μl of compound dilution were added to the plate followed by the addition of 10 μl of BACE1 containing OptiMEM™ diluted 1:10 in water with 0.2% Triton X-100. The reaction was started with the addition of 15 μl substrate in NaOAc buffer. The reaction was incubated at rt (dark) in an Envision® multilabel reader (Perkin Elmer) and the cleavage of the substrate was recorded as kinetic for […] at ex: 485 nm, em: 538 nm. Blank wells containing no enzyme were included on each plate.
The intensity of fluorescence was regressed against time in order to derive velocities of reaction in all 384 wells. These velocities were used for calculating percent control using an uninhibited control containing 1% DMSO as 100% and a blank control performed in the absence of enzyme as 0%. IC50 values were calculated by fitting percent control vs. test compound concentration using Assay Explorer®.

Amino acid sequences for entries named in this document (tags omitted). Residues count along the entry.
UniProt P56817, 22-454: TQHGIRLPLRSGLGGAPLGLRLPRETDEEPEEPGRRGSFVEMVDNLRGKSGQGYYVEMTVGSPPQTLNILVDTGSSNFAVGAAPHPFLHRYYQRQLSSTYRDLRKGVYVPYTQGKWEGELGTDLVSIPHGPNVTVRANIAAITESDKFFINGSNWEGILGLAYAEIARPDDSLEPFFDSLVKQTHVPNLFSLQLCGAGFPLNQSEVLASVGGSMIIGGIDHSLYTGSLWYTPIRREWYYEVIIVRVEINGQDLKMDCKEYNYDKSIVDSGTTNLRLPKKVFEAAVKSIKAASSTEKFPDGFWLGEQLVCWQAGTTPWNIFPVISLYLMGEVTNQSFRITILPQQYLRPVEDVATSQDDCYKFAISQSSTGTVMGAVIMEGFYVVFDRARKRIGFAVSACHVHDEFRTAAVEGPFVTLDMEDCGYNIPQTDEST

The results in this text go back to US9018391B2, “Inhibitors of beta-secretase” (Boehringer Ingelheim International GmbH, priority 2012, dated 2015).

What is called IC50 is the concentration needed to halve the response being measured.

`COC1CCC2(CC1)Cc1ccc(C#N)cc1[C@]21N=C(N)N(C)C1=O` (stereo partly shown) [drawing 10, reference compound] had an IC50 of 16 nM.
